This experiment addresses KPC-2 β-lactamase D179N variant (Klebsiella pneumoniae, UniProt Q93LQ9, D178N). The experiment is described as follows: inhibition kinetics with purified enzyme (Ki app, k2/K); acyl-complex by timed mass spectrometry. It is filed as biochemical. The conditions noted are these: read-out: K i app.

Sequences of proteins named here, by UniProt entry; tags and fusion partners are left off. Residues count along the entry.
UniProt Q93LQ9, 25-293 D178N: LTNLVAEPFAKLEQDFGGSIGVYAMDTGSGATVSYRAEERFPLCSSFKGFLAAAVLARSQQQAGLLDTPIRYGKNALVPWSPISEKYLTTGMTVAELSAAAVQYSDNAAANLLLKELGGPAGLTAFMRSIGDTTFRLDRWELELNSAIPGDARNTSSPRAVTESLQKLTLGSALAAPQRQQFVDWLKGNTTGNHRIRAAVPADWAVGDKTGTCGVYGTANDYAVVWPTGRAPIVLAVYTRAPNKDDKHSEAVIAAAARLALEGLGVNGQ

These results are taken from PMC10215400, “The Effectiveness of Imipenem–Relebactam against Ceftazidime-Avibactam Resistant Variants of the KPC-2 β-Lactamase” (Antibiotics, 2023).

As to `O=C(NC1CCNCC1)[C@@H]1CC[C@@H]2CN1C(=O)N2OS(=O)(=O)O` [relebactam], the Ki amounted to 3.4 ± 0.3 µM.
